# Reference: ChEMBL document CHEMBL1255187, “Structure-based design and synthesis of potent, ethylenediamine-based, mammalian farnesyltransferase inhibitors as anticancer agents” (J Med Chem, 2010)
# Amino acid sequences for entries named in this document (tags omitted).
# UniProt Q8K2I1, whole entry, looked up: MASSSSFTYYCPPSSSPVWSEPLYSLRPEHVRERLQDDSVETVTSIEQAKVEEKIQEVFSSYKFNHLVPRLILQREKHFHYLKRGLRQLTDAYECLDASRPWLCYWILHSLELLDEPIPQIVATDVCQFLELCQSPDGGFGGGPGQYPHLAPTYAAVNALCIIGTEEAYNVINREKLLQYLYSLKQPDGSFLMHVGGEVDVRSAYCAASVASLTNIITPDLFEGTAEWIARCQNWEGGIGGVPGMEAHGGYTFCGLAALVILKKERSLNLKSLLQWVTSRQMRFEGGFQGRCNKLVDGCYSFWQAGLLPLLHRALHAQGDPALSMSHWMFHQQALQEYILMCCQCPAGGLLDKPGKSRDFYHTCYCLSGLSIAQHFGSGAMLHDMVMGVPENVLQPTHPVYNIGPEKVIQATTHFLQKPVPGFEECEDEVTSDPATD
# Assays:
# [1] = target: Protein farnesyltransferase (Mus musculus, UniProt Q61239+Q8K2I1); assay: Inhibition of H-Ras farnesylation expressed in mouse NIH3T3 cells; assay type: functional, cell-based
# Outline: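 Oncogenic H-Ras-transformed NIH3T3 cells were treated with a range of inhibitor concentrations. […] Detection used peroxidase-conjugated secondary antibodies and enhanced chemiluminescence. IC50 is the mean of three independent assays ± SD unless stated otherwise.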
# [2] = organism: Homo sapiens; assay: Selectivity ratio of IC50 for human geranylgeranyltransferase-1 to IC50 for human farnesyltransferase
Structure (SMILES),IC50 [1] [nM],Selectivity ratio [2]
CN(C)c1cccc2c(S(=O)(=O)N(CCN(Cc3cncn3C)c3ccc(C#N)cc3)Cc3ccccc3)cccc12,1500,
Cc1ccc(CN(CCN(Cc2cncn2C)c2ccc(C#N)cc2)S(=O)(=O)c2cn(C)cn2)cc1,,1.6
